Test results as given in US20230339865A1, “QUINAZOLINE-DERIVED HCK INHIBITORS FOR USE IN THE TREATMENT OF MYD88 MUTATED DISEASES” (Dana-Farber Cancer Institute, Inc., priority 2020, published 2023).

Protein sequences, listed by entry. Tags and fused reporters are not part of them.
UniProt P07948, whole entry: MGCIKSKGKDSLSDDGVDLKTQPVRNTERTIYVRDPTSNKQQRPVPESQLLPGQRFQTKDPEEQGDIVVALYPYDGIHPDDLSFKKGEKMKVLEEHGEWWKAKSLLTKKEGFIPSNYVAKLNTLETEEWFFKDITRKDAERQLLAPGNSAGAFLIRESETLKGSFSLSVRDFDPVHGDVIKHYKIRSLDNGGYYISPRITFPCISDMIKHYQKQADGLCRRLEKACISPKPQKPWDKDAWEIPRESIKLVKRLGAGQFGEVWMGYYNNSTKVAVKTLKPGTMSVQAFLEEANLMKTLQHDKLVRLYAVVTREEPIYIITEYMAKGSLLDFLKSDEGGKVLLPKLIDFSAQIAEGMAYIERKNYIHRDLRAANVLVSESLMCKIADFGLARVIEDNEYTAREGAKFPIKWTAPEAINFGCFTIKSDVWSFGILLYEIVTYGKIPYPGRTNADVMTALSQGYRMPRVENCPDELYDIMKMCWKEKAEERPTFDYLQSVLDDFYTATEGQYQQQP
UniProt Q16539, whole entry: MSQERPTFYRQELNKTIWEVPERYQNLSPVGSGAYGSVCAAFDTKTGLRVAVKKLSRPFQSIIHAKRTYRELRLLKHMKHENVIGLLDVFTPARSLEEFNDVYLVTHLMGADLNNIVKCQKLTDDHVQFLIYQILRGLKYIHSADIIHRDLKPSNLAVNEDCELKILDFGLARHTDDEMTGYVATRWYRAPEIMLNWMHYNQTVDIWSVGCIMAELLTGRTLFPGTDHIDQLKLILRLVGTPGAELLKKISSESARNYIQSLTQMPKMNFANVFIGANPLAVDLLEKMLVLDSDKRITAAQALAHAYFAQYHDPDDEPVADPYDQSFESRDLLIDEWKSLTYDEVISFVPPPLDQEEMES
UniProt P00519, whole entry: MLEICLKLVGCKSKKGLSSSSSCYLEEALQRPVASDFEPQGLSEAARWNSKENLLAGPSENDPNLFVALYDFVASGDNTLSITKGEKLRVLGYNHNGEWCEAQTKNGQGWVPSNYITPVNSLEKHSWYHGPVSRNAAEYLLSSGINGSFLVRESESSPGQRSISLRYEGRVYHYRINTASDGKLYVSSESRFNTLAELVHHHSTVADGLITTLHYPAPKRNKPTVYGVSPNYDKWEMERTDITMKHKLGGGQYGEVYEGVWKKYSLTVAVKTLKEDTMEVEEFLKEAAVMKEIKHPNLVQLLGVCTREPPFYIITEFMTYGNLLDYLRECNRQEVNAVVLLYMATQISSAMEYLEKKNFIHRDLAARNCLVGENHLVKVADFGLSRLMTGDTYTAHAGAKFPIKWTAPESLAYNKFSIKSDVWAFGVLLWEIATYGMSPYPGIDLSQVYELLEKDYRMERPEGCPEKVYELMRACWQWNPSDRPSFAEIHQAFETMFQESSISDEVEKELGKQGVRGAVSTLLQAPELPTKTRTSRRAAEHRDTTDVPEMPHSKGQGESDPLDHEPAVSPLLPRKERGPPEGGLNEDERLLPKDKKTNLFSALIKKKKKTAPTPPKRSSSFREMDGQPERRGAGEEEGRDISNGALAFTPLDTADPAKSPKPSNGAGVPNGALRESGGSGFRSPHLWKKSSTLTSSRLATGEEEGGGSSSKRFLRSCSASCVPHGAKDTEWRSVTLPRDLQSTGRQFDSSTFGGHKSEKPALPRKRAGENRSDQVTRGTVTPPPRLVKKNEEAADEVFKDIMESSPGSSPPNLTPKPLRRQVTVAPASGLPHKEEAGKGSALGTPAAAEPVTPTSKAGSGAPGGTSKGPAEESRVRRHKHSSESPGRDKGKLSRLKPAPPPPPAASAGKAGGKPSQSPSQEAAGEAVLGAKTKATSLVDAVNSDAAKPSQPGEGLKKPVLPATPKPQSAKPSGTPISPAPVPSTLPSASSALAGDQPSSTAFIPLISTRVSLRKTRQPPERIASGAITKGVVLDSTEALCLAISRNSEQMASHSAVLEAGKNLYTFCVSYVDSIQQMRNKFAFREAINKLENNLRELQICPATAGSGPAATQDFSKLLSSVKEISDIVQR
UniProt P42684, whole entry: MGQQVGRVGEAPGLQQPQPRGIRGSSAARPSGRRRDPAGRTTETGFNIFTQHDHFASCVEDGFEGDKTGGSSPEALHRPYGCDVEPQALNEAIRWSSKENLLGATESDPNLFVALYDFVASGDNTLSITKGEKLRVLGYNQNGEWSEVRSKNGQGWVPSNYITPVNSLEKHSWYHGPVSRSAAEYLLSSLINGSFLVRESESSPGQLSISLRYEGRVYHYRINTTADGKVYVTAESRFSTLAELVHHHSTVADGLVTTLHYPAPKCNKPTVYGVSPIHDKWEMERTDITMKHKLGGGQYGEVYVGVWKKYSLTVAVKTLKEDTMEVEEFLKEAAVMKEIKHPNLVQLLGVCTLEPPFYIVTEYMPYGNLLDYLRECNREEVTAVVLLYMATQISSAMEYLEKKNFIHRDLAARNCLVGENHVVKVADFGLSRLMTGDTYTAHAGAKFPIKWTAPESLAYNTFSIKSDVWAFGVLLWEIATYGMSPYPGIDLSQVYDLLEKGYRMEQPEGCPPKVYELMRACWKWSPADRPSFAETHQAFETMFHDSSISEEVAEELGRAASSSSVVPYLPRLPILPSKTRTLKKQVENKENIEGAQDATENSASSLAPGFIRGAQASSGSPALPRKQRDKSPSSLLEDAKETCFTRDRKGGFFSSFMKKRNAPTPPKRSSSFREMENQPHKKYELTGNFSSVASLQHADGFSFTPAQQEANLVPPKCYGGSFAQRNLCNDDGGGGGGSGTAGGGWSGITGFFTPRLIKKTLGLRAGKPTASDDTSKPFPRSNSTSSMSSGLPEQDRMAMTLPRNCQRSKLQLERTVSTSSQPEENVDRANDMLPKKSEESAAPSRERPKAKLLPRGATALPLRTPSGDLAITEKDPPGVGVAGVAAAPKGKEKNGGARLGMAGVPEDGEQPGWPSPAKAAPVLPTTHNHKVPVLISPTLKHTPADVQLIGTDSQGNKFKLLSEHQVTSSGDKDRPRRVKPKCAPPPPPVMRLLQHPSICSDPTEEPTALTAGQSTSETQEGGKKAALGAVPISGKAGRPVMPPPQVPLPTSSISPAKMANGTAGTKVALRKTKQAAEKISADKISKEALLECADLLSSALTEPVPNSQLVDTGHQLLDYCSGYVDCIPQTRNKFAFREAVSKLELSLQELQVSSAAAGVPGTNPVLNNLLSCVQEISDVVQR
UniProt P12931, whole entry: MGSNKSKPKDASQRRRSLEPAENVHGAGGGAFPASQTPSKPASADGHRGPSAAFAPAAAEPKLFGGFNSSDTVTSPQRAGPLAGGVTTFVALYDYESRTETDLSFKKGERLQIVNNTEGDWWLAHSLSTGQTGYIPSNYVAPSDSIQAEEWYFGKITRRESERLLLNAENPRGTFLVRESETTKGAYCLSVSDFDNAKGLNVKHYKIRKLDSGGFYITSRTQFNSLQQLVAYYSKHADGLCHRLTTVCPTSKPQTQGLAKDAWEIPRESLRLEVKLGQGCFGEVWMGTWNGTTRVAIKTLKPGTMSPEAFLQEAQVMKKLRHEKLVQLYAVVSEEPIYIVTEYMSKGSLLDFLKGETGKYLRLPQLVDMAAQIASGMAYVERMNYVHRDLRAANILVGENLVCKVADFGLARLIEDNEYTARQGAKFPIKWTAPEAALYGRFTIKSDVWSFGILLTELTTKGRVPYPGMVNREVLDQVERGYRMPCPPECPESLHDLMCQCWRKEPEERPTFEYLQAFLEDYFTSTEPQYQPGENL
UniProt P06239, whole entry: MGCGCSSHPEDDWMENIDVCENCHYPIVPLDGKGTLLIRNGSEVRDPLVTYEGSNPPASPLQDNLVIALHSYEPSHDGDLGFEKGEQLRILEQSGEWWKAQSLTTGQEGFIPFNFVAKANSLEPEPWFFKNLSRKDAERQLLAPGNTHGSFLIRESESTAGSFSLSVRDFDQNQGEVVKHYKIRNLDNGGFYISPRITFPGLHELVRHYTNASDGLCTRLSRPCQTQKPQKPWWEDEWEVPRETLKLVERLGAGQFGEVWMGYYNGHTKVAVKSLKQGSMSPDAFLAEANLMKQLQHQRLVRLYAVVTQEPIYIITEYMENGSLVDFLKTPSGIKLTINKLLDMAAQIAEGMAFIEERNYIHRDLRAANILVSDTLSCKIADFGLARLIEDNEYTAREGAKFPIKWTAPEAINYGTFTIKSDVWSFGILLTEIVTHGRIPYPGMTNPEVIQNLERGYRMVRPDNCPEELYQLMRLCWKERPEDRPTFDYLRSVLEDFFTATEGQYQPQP
UniProt P08631, whole entry: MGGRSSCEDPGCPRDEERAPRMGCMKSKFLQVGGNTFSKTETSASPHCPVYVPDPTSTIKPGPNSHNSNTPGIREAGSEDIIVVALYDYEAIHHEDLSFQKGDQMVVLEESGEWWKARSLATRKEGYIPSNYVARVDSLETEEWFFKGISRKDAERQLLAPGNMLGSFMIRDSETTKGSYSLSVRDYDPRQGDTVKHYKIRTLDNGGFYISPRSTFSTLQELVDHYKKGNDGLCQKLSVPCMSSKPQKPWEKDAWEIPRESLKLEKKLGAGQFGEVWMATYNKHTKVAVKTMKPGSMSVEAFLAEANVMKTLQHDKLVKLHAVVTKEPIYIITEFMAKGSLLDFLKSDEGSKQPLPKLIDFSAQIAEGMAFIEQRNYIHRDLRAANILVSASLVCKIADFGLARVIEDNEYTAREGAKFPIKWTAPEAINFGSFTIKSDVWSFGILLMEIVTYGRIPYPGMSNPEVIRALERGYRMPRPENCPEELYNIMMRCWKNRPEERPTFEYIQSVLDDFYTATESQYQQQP
UniProt Q9UL54, whole entry: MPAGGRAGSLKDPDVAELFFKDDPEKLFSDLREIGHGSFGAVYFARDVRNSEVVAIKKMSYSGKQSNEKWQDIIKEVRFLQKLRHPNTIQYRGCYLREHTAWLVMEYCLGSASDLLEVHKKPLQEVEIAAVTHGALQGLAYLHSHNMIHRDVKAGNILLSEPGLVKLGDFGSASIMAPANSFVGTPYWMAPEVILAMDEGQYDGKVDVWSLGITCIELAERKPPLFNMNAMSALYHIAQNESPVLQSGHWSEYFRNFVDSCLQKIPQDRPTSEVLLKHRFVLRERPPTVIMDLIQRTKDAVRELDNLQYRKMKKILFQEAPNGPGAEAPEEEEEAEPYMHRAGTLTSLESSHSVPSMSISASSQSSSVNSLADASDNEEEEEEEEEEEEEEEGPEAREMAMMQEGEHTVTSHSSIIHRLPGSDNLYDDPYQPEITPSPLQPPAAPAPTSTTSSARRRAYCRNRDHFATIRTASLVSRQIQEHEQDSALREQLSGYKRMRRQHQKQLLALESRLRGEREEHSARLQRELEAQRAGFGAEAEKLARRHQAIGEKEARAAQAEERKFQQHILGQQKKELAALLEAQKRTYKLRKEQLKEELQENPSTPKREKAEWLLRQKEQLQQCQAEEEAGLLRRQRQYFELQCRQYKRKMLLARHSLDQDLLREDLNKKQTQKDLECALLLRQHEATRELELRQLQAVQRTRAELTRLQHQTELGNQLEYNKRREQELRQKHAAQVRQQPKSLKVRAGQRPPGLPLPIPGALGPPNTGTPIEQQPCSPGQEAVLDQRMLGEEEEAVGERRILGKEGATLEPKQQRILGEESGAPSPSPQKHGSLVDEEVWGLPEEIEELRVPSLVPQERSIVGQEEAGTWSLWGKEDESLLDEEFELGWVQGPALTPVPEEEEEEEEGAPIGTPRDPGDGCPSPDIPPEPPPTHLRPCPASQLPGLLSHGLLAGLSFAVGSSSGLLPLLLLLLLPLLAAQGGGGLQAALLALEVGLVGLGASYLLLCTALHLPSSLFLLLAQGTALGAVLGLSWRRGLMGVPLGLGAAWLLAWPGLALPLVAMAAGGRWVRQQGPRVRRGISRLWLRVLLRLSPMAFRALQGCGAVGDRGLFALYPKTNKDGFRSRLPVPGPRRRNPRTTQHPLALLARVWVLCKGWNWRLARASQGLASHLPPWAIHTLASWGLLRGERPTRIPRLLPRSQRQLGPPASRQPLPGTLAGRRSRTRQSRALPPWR
UniProt P06241, whole entry: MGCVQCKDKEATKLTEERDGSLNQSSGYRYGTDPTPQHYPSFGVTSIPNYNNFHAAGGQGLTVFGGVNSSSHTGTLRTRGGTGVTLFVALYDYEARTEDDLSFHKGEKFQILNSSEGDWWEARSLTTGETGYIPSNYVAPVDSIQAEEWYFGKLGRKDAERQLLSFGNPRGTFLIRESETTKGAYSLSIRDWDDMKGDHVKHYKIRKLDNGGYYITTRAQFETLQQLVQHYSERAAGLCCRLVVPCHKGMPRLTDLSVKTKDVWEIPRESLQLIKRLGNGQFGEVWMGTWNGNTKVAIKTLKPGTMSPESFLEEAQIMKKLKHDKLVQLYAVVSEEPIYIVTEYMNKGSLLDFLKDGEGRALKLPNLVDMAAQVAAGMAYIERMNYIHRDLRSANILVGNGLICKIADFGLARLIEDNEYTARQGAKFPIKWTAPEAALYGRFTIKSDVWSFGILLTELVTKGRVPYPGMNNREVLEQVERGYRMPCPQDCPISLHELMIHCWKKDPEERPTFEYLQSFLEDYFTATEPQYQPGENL

What was measured:
[1] = microsome stability (mouse)
[2] = microsome stability (rat)
[3] = microsome stability (human)
[4] = molecular target: LYN A (Homo sapiens, UniProt P07948); experiment: Invitrogen kinase assay LYN A; details: read-out: IC50 LYN A
[5] = molecular target: MAPK14 (p38 alpha) Direct (Homo sapiens, UniProt Q16539); experiment: Invitrogen kinase assay MAPK14 (p38 alpha) Direct; details: read-out: IC50 MAPK14 (p38 alpha) Direct
[6] = molecular target: MAP4K1 (HPK1) (Homo sapiens, UniProt Q92918); experiment: Invitrogen kinase assay MAP4K1 (HPK1); details: read-out: IC50 MAP4K1 (HPK1)
[7] = molecular target: ABL1 (Homo sapiens, UniProt P00519); experiment: Invitrogen kinase assay ABL1; details: read-out: IC50 ABL1
[8] = molecular target: ABL2 (Arg) (Homo sapiens, UniProt P42684); experiment: Invitrogen kinase assay ABL2 (Arg); details: read-out: IC50 ABL2 (Arg)
[9] = molecular target: SRC (Homo sapiens, UniProt P12931); experiment: Invitrogen kinase assay SRC; details: read-out: IC50 SRC
[10] = molecular target: LCK (Homo sapiens, UniProt P06239); experiment: Invitrogen kinase assay LCK; details: read-out: IC50 LCK
[11] = molecular target: HCK (Homo sapiens, UniProt P08631); experiment: Invitrogen kinase assay HCK; details: read-out: IC50 HCK
[12] = molecular target: TAOK3 (JIK) (Homo sapiens, UniProt Q9H2K8); experiment: Invitrogen kinase assay TAOK3 (JIK); details: read-out: IC50 TAOK3 (JIK)
[13] = molecular target: TAOK2 (TAO1) (Homo sapiens, UniProt Q9UL54); experiment: Invitrogen kinase assay TAOK2 (TAO1); details: read-out: IC50 TAOK2 (TAO1)
[14] = molecular target: FYN (Homo sapiens, UniProt P06241); experiment: Invitrogen kinase assay FYN; details: read-out: IC50 FYN
[15] = molecular target: TAOK1 (Homo sapiens, UniProt Q7L7X3); experiment: Invitrogen kinase assay TAOK1; details: read-out: IC50 TAOK1

microsome stability (T1/2, min) [1]: 52 min | microsome stability (T1/2, min) [2]: 61.4 min | microsome stability (T1/2, min) [3]: (rat); >120 (human) min | IC50 [4]: 23.8 nM | IC50 [5]: 164 nM | IC50 [6]: 55 nM | IC50 [7]: 62.6 nM | IC50 [8]: 73.6 nM | IC50 [9]: 117 nM | IC50 [10]: 13.4 nM | IC50 [11]: 16.6 nM | IC50 [12]: 734 nM | IC50 [13]: 238 nM | IC50 [14]: 619 nM | IC50 [15]: 314 nM
SMILES: CCN1CCN(Cc2ccc(NC(=O)c3ccc(C)c(Oc4ncnc5cc(OC)c(OC)cc45)c3)cc2C(F)(F)F)CC1
